In data set [1] the test system is HER-2-overexpressing breast cancer cells (BT-474). Put plainly: Efficacy study in animal model (xenograft). Type of data set: in vivo, nude mice. To be noted: single i.v. injection, trastuzumab vs PBS. The procedure:
For 56 days after injection, the volumes and final weights of the tumors were monitored.
Separately, the antibody-linker-drug conjugate (I-16), prepared in Preparation Examples 12, was intravenously injected once at three different doses (0.05, 0.5, and 5 mg/kg) into nude mice which were previously xenografted with HER-2-overexpressing breast cancer cells (BT-474). For 28 days after injection, volumes and final weights of the tumors were monitored.
In addition, the antibody-linker-drug conjugates (I-23), (1-25), and (I-26), prepared respectively in Preparation Examples 19, 21, and 22, were intravenously injected once at three different doses (0.05, 0.5, and 5 mg/kg) into nude mice which were previously xenografted with HER-2-overexpressing breast cancer cells (BT-474). For 28 days after injection, the volumes and final weights of the tumors were monitored.
In another experiment, nude mice xenografted with HER-2-overexpressing breast cancer cell line (BT-474) were intravenously injected once with three difference doses (0.05, 0.5, and 5 mg/kg) of the antibody-linker-drug conjugate (I-34), prepared in Preparation Example 30. For 28 days after injection, the volumes and final weights of the tumors were monitored.

The nature of data set [2]: Pharmacokinetic (PK) assay. On the set-up: species or system Balb/c Slc-nu mice. To be noted: mouse, in vivo, iv, 20 mg/kg.

“Also recorded” adds a separate entry of the source.

Consider trastuzumab, for which the “tumor size (volume and final weight)” value is on record as “significantly reduced tumor sizes; also recorded: significant reduction in tumor size” in data set [1] (conjugates 0.05, 0.5 and 5 mg/kg, trastuzumab 5 mg/kg, 28 days); “reduced significantly” in data set [1] (conjugates 1.25, 5 and 20 mg/kg, trastuzumab 20 mg/kg, 56 days). The same substance showed a C0 in data set [2] of 379.9 µg/mL.

These data come from patent publication US9814784B2, “Antibody-linker-drug conjugate, preparation method therefor, and anticancer drug composition containing same” (priority 2013, dated 2017).
